The values that follow come from BindingDB's records for patent US11433071 (Incyte Corporation; Incyte Holdings Corporation, 2022).

The test concerns the target T1, Phosphatidylinositol 4,5-bisphosphate 3-kinase catalytic subunit delta isoform (Homo sapiens, UniProt O00329).
T1 sequence (O00329 whole entry): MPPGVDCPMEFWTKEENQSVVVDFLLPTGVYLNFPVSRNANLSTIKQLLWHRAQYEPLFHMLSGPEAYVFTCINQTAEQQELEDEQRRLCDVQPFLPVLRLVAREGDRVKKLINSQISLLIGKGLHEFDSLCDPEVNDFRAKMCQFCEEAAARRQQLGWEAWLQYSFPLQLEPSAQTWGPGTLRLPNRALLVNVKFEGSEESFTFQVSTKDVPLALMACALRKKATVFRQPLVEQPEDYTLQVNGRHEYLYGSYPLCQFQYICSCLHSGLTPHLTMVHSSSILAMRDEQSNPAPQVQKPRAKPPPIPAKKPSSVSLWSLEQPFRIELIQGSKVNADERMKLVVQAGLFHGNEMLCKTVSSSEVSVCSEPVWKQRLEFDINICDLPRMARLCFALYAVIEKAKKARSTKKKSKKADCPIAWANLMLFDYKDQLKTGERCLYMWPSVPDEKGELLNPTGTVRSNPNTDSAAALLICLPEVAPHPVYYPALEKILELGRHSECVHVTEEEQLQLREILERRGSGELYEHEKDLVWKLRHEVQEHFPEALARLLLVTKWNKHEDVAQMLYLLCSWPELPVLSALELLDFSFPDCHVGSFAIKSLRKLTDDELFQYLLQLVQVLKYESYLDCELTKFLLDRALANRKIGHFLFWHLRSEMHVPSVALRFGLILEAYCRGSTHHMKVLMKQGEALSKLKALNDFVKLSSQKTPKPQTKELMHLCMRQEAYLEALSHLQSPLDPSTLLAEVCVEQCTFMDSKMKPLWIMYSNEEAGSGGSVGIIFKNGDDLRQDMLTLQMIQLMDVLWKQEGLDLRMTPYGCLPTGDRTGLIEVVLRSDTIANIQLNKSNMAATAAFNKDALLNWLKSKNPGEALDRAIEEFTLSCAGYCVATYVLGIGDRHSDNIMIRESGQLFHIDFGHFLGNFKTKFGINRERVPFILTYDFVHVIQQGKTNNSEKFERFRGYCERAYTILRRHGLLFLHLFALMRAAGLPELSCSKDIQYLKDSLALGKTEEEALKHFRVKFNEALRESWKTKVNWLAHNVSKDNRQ
Put plainly: PI3Kδ Scintillation Proximity Assay. As to the method:
The kinase reaction was conducted in polystyrene 384-well matrix white plate from Thermo Fisher Scientific in a final volume of 25 μL. Inhibitors were first diluted serially in DMSO and added to the plate wells before the addition of other reaction components. The final concentration of DMSO in the assay was 0.5%. The PI3K assays were carried out at room temperature in 20 mM MOPS, pH 6.7, 10 mM MgCl2, 5 mM DTT and CHAPS 0.03%. Reactions were initiated by the addition of ATP, the final reaction mixture consisted of 20 μM PIP2, 20 μM ATP, 0.2 μCi [γ-33P] ATP, 4 nM PI3Kδ. Reactions were incubated for 210 min and terminated by the addition of 40 μL SPA beads suspended in quench buffer: 150 mM potassium phosphate pH 8.0, 20% glycerol. 25 mM EDTA, 400 µM ATP. The final concentration of SPA beads was 1.0 mg/mL. After the plate sealing, plates were shaken overnight at room temperature and centrifuged at 1800 rpm for 10 minutes, the radioactivity of the product was determined by scintillation counting on Topcount (Perkin-Elmer).
A general note: SPA uses beads or plates that emit light when radiolabelled molecules are held near them.

For orientation: IC50 means the concentration at which inhibition is half-maximal. A lower IC50 goes with higher potency.

SMILES strings stand for the structures. Where only a bound is given, the exact number is not on record here.

In the case of `CCOc1c(C(C)n2nc(C)c3c(N)ncnc32)cc(C)c(C#N)c1C1CN(c2ccc(C(=O)N(C)C)nc2)C1` (stereo unspecified) [US11433071, Example 344], the IC50 was < 10 nM.
